Among the data in ChEMBL document CHEMBL1159186 (Bioorg Med Chem Lett, 1996) are IC50 values, retold here.

Amino acid sequences for entries named in this document (tags omitted). A change or cut given only in a name is not applied to a line headed by its entry.
UniProt P12931: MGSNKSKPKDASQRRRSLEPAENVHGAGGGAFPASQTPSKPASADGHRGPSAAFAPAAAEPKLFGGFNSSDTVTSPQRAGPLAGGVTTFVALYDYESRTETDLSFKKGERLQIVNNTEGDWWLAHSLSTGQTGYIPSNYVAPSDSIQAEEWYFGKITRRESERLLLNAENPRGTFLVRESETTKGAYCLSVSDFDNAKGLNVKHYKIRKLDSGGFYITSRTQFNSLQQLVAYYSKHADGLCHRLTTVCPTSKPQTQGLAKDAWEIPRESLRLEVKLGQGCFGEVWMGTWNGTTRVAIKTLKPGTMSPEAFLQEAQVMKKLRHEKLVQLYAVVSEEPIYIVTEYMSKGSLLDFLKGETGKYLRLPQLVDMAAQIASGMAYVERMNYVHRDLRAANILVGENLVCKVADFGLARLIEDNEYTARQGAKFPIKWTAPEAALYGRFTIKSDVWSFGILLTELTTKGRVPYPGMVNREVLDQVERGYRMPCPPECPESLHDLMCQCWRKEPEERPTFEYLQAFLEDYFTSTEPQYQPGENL

What is called IC50 is the point on the concentration scale where inhibition reaches its midpoint.

The target of the test is Proto-oncogene tyrosine-protein kinase Src (Homo sapiens, UniProt P12931). Kind of test: Inhibition of tyrosine kinase(c-Src).

Take `Cc1ccc(NC(=O)c2ccccc2)cc1Nc1nccc(-c2cccnc2)n1`: the IC50 is more than 100 µM.
